Assay results: ChEMBL document CHEMBL1124430, “Dermorphin analogues carrying an increased positive net charge in their "message" domain display extremely high mu opioid receptor selectivity” (J Med Chem, 1989)

Protein sequences, listed by entry. Tags and fused reporters are not part of them.
UniProt P33533, whole entry, looked up: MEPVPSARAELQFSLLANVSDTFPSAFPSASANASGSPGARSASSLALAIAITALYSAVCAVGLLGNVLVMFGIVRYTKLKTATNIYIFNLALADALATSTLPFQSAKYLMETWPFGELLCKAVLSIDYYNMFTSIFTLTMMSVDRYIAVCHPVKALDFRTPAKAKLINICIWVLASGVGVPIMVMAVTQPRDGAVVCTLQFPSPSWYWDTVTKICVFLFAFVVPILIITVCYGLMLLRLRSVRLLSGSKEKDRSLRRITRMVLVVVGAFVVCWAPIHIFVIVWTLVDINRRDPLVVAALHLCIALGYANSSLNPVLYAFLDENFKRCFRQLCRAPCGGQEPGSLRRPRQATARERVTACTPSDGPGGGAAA
UniProt P33535, whole entry, looked up: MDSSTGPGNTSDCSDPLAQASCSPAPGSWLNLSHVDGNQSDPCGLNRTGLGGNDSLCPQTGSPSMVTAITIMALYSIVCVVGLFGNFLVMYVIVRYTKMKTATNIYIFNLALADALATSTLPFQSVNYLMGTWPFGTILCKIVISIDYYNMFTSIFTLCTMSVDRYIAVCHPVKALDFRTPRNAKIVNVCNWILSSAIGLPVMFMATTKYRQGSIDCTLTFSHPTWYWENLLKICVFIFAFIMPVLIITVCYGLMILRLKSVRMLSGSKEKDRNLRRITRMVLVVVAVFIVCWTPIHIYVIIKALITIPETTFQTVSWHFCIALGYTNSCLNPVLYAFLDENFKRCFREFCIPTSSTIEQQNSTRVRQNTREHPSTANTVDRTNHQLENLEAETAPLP

Tests used:
[1] = molecular target: Delta-type opioid receptor (Rattus norvegicus) (UniProt P33533); assay: The relative potency of compound was measured against delta opioid receptor to that of [Leu]enkephalin in [3H]DSLET binding assay.
[2] = molecular target: Mu-type opioid receptor (Rattus norvegicus) (UniProt P33535); assay: The relative potency of compound was measured against mu opioid receptor to that of [Leu]enkephalin in [3H]DAGO binding assay.
[3] = molecular target: Delta-type opioid receptor (Rattus norvegicus) (UniProt P33533); assay: The relative potency of compound was measured against Opioid receptor delta 1 to that of [Leu]enkephalin in [3H]DSLET binding assay.
[4] = molecular target: Mu-type opioid receptor (Rattus norvegicus) (UniProt P33535); assay: The relative potency of compound was measured against Opioid receptor mu 1 to that of [Leu]enkephalin in [3H]DAGO binding assay.

SMILES	Relative potency [1]	Relative potency [2]	Relative potency [3]	Relative potency [4]
CC(C)C[C@H](NC(=O)[C@H](Cc1ccccc1)NC(=O)CNC(=O)CNC(=O)[C@@H](N)Cc1ccc(O)cc1)C(=O)O	1			
CCC[C@@H](NC(=O)[C@@H](N)Cc1ccc(O)cc1)C(=O)N[C@@H](Cc1ccccc1)C(=O)N[C@@H](CCCN)C(N)=O	0.00115	8.01		
NC(=O)[C@H](CCCN=C(N)N)NC(=O)[C@H](CCCN=C(N)N)NC(=O)[C@H]1CC(=O)NCCC[C@H](NC(=O)[C@@H](N)Cc2ccc(O)cc2)C(=O)N[C@@H](Cc2ccccc2)C(=O)N1	0.00135	0.399		
CCCC[C@@H](NC(=O)[C@@H](N)Cc1ccc(O)cc1)C(=O)N[C@@H](Cc1ccccc1)C(=O)N[C@@H](CCCN)C(N)=O	0.000881	6.97		
C[C@@H](NC(=O)[C@@H](N)Cc1ccc(O)cc1)C(=O)NCC(=O)N(C)[C@@H](Cc1ccccc1)C(=O)NCCO [DAMGO]			0.00198	7.73
